According to US20130261137A1, “Methods, Compounds and Compositions Relating to Activating a Latent Virus” (ULC BUSINESS PLC, priority 2010, published 2013):

Columns and labels:
JSC-1 cells = experiment: Apoptosis of JSC-1 cells by flow cytometry with pan-caspase inhibitor; assay type: cell-based; conditions: Q-VD-OPH 100 nM, 40 h after treatment with UCLB-15026 800 nM or taxol 80 nM
HIV-1 LTR in ACH2 cells = experiment: HIV-1 LTR induction assay, TAR RNA qPCR in ACH2 cells; conditions: prostratin 1 μM, VPA 1.5 mM; for HIV-1 LTR activity, agents used singly (qPCR for TAR RNA): UCLB-15026

SMILES | effect on apoptosis (JSC-1 cells) | LTR induction of 15026 with prostratin compared with prostratin plus VPA (HIV-1 LTR in ACH2 cells) | effect of combining 15026 with either prostratin or VPA on LTR activity (HIV-1 LTR in ACH2 cells) | HIV-1 LTR activity, agents used singly (qPCR for TAR RNA) (HIV-1 LTR in ACH2 cells)
CC(C)[C@H](NC(=O)c1ccc2ccccc2n1)C(=O)N[C@@H](CC(=O)O)C(=O)COc1c(F)cccc1F [Q-VD-OPH] | blocking apoptosis |  |  | 
COc1ccc(-c2csc3c2-n2cccc2C3=O)cc1 [UCLB-15026] |  | higher levels of LTR induction than prostratin plus VPA | potentiate the effect | induced LTR activity
CCCC(CCC)C(=O)O [VPA, valproic acid] |  |  |  | induced LTR activity
CC(=O)O[C@@]12C[C@@H](C)[C@@]3(O)[C@@H](C=C(CO)C[C@]4(O)C(=O)C(C)=C[C@@H]34)[C@@H]1C2(C)C [prostratin] |  |  |  | induced LTR activity
